Values quoted from earlier work as cited in patent publication US7825126B2 (The United States of America as represented by the …, priority 2004, dated 2010).

Amino acid sequences for entries named in this document (tags omitted). A change or cut given only in a name is not applied to a line headed by its entry.
UniProt P29275, whole entry: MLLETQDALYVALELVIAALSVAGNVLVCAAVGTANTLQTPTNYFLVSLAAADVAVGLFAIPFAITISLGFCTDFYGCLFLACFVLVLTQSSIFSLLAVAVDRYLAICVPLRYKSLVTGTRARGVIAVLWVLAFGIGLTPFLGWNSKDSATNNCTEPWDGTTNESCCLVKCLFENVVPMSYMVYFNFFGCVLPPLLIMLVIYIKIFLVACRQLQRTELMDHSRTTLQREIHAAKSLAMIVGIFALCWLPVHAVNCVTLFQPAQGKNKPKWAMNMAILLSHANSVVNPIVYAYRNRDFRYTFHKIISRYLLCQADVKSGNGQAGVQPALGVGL

Target: human A2B adenosine receptor (hA2BAR) (Homo sapiens, UniProt P29275)
Conditions: data from literature (footnotes c, f, h); cited from earlier work

## COc1ccc(Cl)cc1CNc1ncnc2c1ncn2[C@@H]1O[C@H](CO)[C@@H](O)[C@H]1O
  % Activation (hA2BAR) at 10 μM: 57%
